Measured values from US20230091225A1, “Bifunctional chimeric heterocyclic compounds for targeted degradation of androgen receptors and use thereof” (HINOVA PHARMACEUTICALS INC., priority 2019, published 2023).

Sequences of proteins named here, by UniProt entry; tags and fusion partners are left off. A change or cut given only in a name is not applied to a line headed by its entry.
UniProt P10275: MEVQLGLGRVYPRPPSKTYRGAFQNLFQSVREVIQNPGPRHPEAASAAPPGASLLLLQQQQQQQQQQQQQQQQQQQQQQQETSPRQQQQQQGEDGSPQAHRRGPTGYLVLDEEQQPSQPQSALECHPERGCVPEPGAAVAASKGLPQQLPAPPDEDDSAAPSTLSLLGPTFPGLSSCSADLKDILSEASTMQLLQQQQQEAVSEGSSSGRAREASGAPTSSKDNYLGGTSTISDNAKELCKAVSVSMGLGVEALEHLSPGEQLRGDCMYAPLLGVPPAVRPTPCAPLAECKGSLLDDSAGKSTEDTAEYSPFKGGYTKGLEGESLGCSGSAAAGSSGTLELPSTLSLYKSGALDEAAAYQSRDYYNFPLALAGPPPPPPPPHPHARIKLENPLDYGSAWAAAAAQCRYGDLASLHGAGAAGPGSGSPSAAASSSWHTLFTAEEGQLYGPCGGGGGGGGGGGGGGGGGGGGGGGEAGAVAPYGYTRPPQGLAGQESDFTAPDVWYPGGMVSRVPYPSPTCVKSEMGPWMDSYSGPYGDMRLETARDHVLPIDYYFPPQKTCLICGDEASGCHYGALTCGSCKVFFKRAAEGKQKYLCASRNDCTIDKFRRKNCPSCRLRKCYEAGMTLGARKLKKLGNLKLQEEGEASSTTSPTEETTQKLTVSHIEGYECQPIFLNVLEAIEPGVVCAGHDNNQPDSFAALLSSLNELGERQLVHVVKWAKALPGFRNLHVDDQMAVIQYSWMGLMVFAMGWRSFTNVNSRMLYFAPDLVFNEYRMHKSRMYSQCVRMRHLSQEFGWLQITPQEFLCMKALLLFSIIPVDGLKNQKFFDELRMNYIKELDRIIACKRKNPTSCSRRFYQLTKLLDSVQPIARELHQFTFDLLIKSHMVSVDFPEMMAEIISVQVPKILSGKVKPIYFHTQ

Target: androgen receptor (AR) (Homo sapiens, UniProt P10275)
Assay: Degradation of androgen receptor (AR) protein in VCaP cells by ELISA
Assay type: cell-based

N-((1r,4r)-4-(3-chloro-4-cyanophenoxy)cyclohexyl)-5-(2-(2,6-dioxopiperidin-3-yl)-1,3-dioxoisoindolin-5-yl)piperidine-4-yl)-2,7-diazaspiro[3.5]nonan-7-yl)pyrazine-2-carboxamide [Compound 288]
DC50: < 10 nM
Dmax (%): ++++ (key: A: >80%; B: 79%-50%; C: 49%-25%; D: <25%)
